Most compounds without a hit are left out; they make up all but 16% or so of the library.
uPA generation = inhibitors of cell surface uPA generation | cell surface uPA generation assay, qHTS | Potency, µM (titrated, usually from 38.3 µM), for inactives: top-dose activity change, negative = inhibition, hits mostly inhibitors | 330,000 tested, 0.31% active | AID 540303; active = well fitted inhibition curve with a large enough effect; inconclusive = small, poorly fitted or top-dose-only effect; inactive = no such curve, though single readings can be large or run the other way; tested in mouse RAW 264.7 cells; note: potency is the fitted concentration of half-maximal effect; % is set by controls: 0 for no effect and ±100 for the full control effect; nearly all actives have a fitted effect of over 55% in size
TDP1 cell CPT = growth inhibition of DT40 Tdp1-/-;hTDP1 cells with camptothecin (screen for TDP1 inhibitors) | 420,000 tested, 12% active | chicken DT40 Tdp1-/-;hTDP1 cells + 20 nM CPT, ATP luminescence, 48 h | Potency, µM (top dose mostly 46.2 µM), for inactives: top-dose activity change, negative = growth inhibition, hits mostly inhibitors; note: potency is the fitted concentration of half-maximal effect; % is set by controls: 0 for no effect and ±100 for the full control effect; nearly all actives have a fitted effect of over 55% in size
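Chicken DT40 Tdp1-/- cells stably complemented with human TDP1 were seeded at 400 cells/well in medium containing 20 nM camptothecin, exposed to pin-transferred compounds, and grown at 37 °C for at least 48 hr. Viability was read as ATP luminescence.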
miR-21 FLuc = miR-21 reporter, rising signal. HeLa miR-21 FLuc reporter, luciferase, 48 h. Potency, µM (titrated, usually from 38.3 µM), without a hit: at the top dose reporter change, positive = more light. 340,000 tested, under 10 active. AID 2288; active = well fitted rising curve with a large enough effect; inconclusive = small, poorly fitted or top-dose-only effect; inactive = no such curve, though single readings can be large or run the other way;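 also: % of control where 0% means no effect; miR-21 action dims this reporter so a rising signal means less miR-21 action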
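HeLa cells stably expressing CMV-driven firefly luciferase with a downstream miR-21 binding sequence, endogenously expressing miR-21, were treated with titrations (up to about 40uM final) for 48 hours at 37 degree Celsius. Luciferase luminescence was read after lysis.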
TDP1 inh = blocks human tyrosyl-DNA phosphodiesterase 1 | AID 485290 | recombinant TDP1, AlphaScreen DNA substrate cleavage | Q9NUW8 | Potency, µM (series often up to 130 µM), without a hit: top-dose activity change, negative = inhibition, most hits filed as inhibitors | 350,000 tested, 0.28% active; note: potency is the fitted concentration of half-maximal effect; % is set by controls: 0 for no effect and ±100 for the full control effect; nearly all actives have a fitted effect of over 40% in size
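AlphaScreen read-out: signal falls as enzyme removes the 3' tyrosine-FITC from a 5'-biotinylated DNA oligo (15 nM, 5 min, RT). Enzyme was E. coli-made recombinant Tdp1 at 1 nM, exposed to compound for 15 min beforehand; beads 10 ug/ml, 10 min.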
TDP1 cell noCPT = qHTS for Inhibitors of human tyrosyl-DNA phosphodiesterase 1 (TDP1): qHTS in cells in absence of CPT. DT40 Tdp1-/- hTDP1 cells, no CPT, ATP luminescence, 48 h. Potency, µM (top dose mostly 46.2 µM), for inactives: at the highest dose activity change, negative = growth inhibition, hits mostly inhibitors. 420,000 tested, 15% active. AID 686978, 2013; note: potency is the fitted concentration of half-maximal effect; % is set by controls: 0 for no effect and ±100 for the full control effect; nearly all actives have a fitted effect of over 55% in size
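Chicken DT40 Tdp1-/- cells complemented with human TDP1, screened without camptothecin (DMSO vehicle only), 400 cells/well. Compounds pin-transferred, cells incubated at 37 °C for at least 48 hr. Growth read as ATP-dependent luminescence (CellTiter-Glo, 30 min at RT).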
The depositor's hits bear a star; ? = inconclusive; nt = no result given; ! = not confirmed by another sample; [ ] = dose if it differs, or a comment. Unless noted, calls come from the whole dose curve; as a rule, active = well fitted curve in the direction sought with a large enough effect; inconclusive = small, poorly fitted or top-dose-only effect, or another doubt; inactive = no such curve, though single readings can be large; an effect the other way counts as inactive or inconclusive.

item | molecule | TDP1 inh | uPA generation | TDP1 cell noCPT | miR-21 FLuc | TDP1 cell CPT
1 | CC(=O)c1ccc(C(=O)Nc2nnc(-c3ccc(Cl)cc3)o2)cc1 | nt | ? | 9.2µM* | -6% | 9.2µM*
2 | COC(=O)c1sccc1NC(=O)c1cccc(OC)c1 | 2% | -5% | 21µM* | -6% | ?
3 | COc1cccc(-c2nnc(NC(C)=O)o2)c1 | nt | 3% | -4% | -24% | 1%
4 | COc1cccc(C(=O)Nc2nnc(-c3ccc(F)cc3)o2)c1 | nt | ? | 9.2µM* | 22% | 10µM*
5 | Cc1cccc(N2C(=O)C(O)=C(C(=O)c3cccs3)C2c2ccccc2)n1 (stereo not given) | 6% | -5% | ? | 2% | -7%
6 | COc1ccc(CN2CCOc3c(cc(-c4ccc(OC)nn4)cc3OC)C2)c(O)c1 | nt | nt | -12% | nt | -9%
7 | COc1cccc(C(=O)Nc2nnc(-c3cccs3)o2)c1 | 10% | ? | ? | 5% | 16µM*
8 | COc1ccc(Cl)cc1NC(=O)NCCc1c(C)nn(C)c1C | -1% | nt | 16µM* | -11% | ?
9 | Cc1ccc(NC(=O)NCCc2c(C)nn(C)c2C)cc1Cl | -1% | nt | 23µM* | -43% | ?
10 | COC(=O)c1ccc(Cl)cc1NC(=O)NCCc1c(C)nn(C)c1C | 4% | nt | ? | -10% | ?
11 | Cc1cc(C)cc(NC(=O)NCCc2c(C)nn(C)c2C)c1 | 1% | nt | -24% | -14% | -12%
12 | O=C(CNC(=O)OCc1ccccc1)NCC(=O)Oc1ccc([N+](=O)[O-])cc1 | nt | 1% | ? | nt | -1%
13 | CCc1nc(SCC(=O)c2cccs2)c2oc3ccccc3c2n1 | -5% | -5% | 18µM* | -26% | ?
14 | CCc1nc(SCC(=O)NCCc2ccccc2)c2oc3ccccc3c2n1 | 0% | 4% | ? | -1% | 21µM*
15 | CCc1nc(SCC(=O)N2CCc3ccccc32)c2oc3ccccc3c2n1 | nt | 8% | 1% | nt | 5%
16 | CCCn1c(SCC(=O)Nc2ccc3c(c2)CCC3)n[nH]c1=O | 3% | -2% | 9% | 0% | 0%
17 | CCc1ccc(CNC(=O)CCn2c(=O)c3cccn3c3ccc(F)cc32)cc1 | 8% | nt | ? | -7% | ?
18 | Cc1c(O)cc2n(c1=O)-c1ccccc1C2(C)C | 0% | -3% | -15% | -11% | -7%
19 | CC1(C)c2ccccc2-n2c1cc1oc(=O)cc(O)c1c2=O | 5% | -1% | 21µM* | 0% | ?
20 | COc1ccc(-n2nc(C(=O)NCC(=O)N3CC(C)CC(C)C3)c3ccccc3c2=O)c(OC)c1 (stereo not given) | -1%[0.0935 µM] | 1% | -19% | 0% | -20%
21 | C=C1CC[C@H](O)C/C1=C/C=C1\CCC[C@]2(C)C([C@H](C)CCCC(C)(C)O)CC[C@@H]12 (stereo not given in full) | 4% | nt | 0.021µM*! | nt | 0.046µM*!
22 | Cc1ccnc2nc(C(=O)Nc3ccc(N4CCOCC4)cc3)nn12 | 3% | 11% | ? | -35% | ?
23 | CCN(CC)C(=O)c1cc(Cl)ccc1NC(=O)c1ccco1 | nt | 1% | 4% | -2% | -3%
24 | CCN(CC)P(=O)(Nc1ccccc1Br)c1ccc(N(C)C)cc1NC(=O)c1ccco1 (stereo not given) | 5% | 12% | 23µM* | -3% | 29µM*
25 | CC(=O)CSc1ncnc2sc3c(c12)CCC(C)C3 (stereo not given) | -1% | 8% | -19% | -49% | -26%
26 | CC1CCc2c(sc3ncnc(SCC(=O)N(C)C4CCS(=O)(=O)C4)c23)C1 (stereo not given) | 1% | 2% | 18µM* | nt | ?
27 | CCN(C(=O)CSc1nc(C)nc2sc3c(c12)CCC3)C1CCS(=O)(=O)C1 (stereo not given) | 1% | 0% | 21µM* | nt | ?
28 | CCCn1c(SCC(=O)N(C)C2CCS(=O)(=O)C2)nc2sc3c(c2c1=O)CCC3 (stereo not given) | 3% | -1% | ? | nt | ?
29 | COc1cc(OC)c2c(OC)cccc2n1 | 5% | -3% | -1% | 2% | 26%
30 | O=C(Cn1c(=O)n(Cc2ccco2)c(=O)c2c3c(sc21)CCCCC3)c1ccccc1 | -14% | 2% | 15µM* | -14% | 15µM*

2 entries from above, field by field:
19	CC1(C)c2ccccc2-n2c1cc1oc(=O)cc(O)c1c2=O
  TDP1 inh = 5%
  uPA generation = -1%
  TDP1 cell noCPT = 21µM*
  miR-21 FLuc = 0%
  TDP1 cell CPT = ?

29	COc1cc(OC)c2c(OC)cccc2n1
  TDP1 inh = 5%
  uPA generation = -3%
  TDP1 cell noCPT = -1%
  miR-21 FLuc = 2%
  TDP1 cell CPT = 26%

A few values from the results shown.
CCN(CC)P(=O)(Nc1ccccc1Br)c1ccc(N(C)C)cc1NC(=O)c1ccco1 (stereo not given) in uPA generation reads 12%
O=C(CNC(=O)OCc1ccccc1)NCC(=O)Oc1ccc([N+](=O)[O-])cc1 in TDP1 cell CPT reads -1%
COc1cccc(-c2nnc(NC(C)=O)o2)c1 in uPA generation reads 3%
C=C1CC[C@H](O)C/C1=C/C=C1\CCC[C@]2(C)C([C@H](C)CCCC(C)(C)O)CC[C@@H]12 (stereo not given in full) in TDP1 inh reads 4%
CCc1ccc(CNC(=O)CCn2c(=O)c3cccn3c3ccc(F)cc32)cc1 in miR-21 FLuc reads -7%
CCc1nc(SCC(=O)NCCc2ccccc2)c2oc3ccccc3c2n1 in miR-21 FLuc reads -1%

New compounds follow.
item | molecule | TDP1 inh | uPA generation | TDP1 cell noCPT | miR-21 FLuc | TDP1 cell CPT
31 | O=C(Cn1c(=O)n(Cc2ccco2)c(=O)c2c3c(sc21)CCCCC3)Nc1ccccc1 | nt | -8% | ? | -1% | -7%
32 | O=c1c2c3c(sc2n(CCN2CCCC2)c(=O)n1Cc1ccco1)CCCCC3 | 12% | 2% | 12µM* | -10% | 8.2µM*
33 | Cc1cc(C)cc(Oc2c(C(F)(F)F)oc3cc(OCC(=O)NC4CCCCC4)ccc3c2=O)c1 | nt | nt | ? | 0% | -8%
34 | COc1ccccc1-n1cnc2c(c1=O)c1nc3ccccc3nc1n2-c1ccc(C)c(C)c1 | -8% | 14% | 18µM* | -1% | -77%
35 | CC(=O)N/N=C(\C)CC(=O)NC(C)(C)C | 6% | 2% | -21% | -1% | 22%
36 | O=[N+]([O-])c1nn(-c2ccc3c(c2)OCCO3)n(O)c1=Nc1ccc(Cl)cc1 | 10% | -13% | 16µM* | -2% | 23µM*
37 | Cc1cc(C)cc(N=c2c([N+](=O)[O-])nn(-c3ccc4c(c3)OCCO4)n2O)c1 | 11% | -8% | 2.9µM* | -17% | 2.6µM*
38 | CCc1ccc(N=c2c([N+](=O)[O-])nn(-c3ccc4c(c3)OCCO4)n2O)cc1 | 8% | 1% | -12% | -40% | -13%
39 | O=[N+]([O-])c1nn(-c2ccc3c(c2)OCCO3)n(O)c1=Nc1ccccc1 | -2% | -4% | 23µM* | 22% | 26µM*
40 | O=C(C[C@H]1CC[C@@H](NC(=O)Nc2ccc3c(c2)OCO3)[C@@H](CO)O1)NCc1ccccc1 | nt | nt | -8% | nt | -21%
41 | Cc1ccc(NS(=O)(=O)c2sc3ccc(Cl)cc3c2C)cc1 | 2% | 5% | ? | 1% | ?
42 | Cc1nnc(-c2cccc(Br)c2)c2cn(-c3ccccc3)nc12 | 3% | -4% | ? | -6% | 23µM*
43 | O=C(c1cn(-c2ccccc2)nc1-c1cccc(Br)c1)N1CCOCC1 | 1% | 5% | ? | -6% | -21%
44 | Cc1nnc(-c2cccc(Br)c2)c2cn(-c3cccc(Br)c3)nc12 | -5% | -6% | 16µM* | -3% | ?
45 | Cc1nnc(-c2cccc(Br)c2)c2cn(-c3ccc(Br)cc3)nc12 | 4% | 4% | 15µM* | 1% | ?
46 | CCOC(=O)c1ccc(S(=O)(=O)N2CCC(C(=O)O)CC2)cc1 | 4% | 0% | -10% | -2% | -7%
47 | Cc1ccc(C2NC(c3ccc(C)cc3)C(C)C(=O)C2C)cc1 (stereo not given) | -4% | -1% | ? | -3% | ?
48 | O=C1C(c2ccccc2)C(c2ccccc2)NC(c2ccccc2)C1c1ccccc1 (stereo not given) | -3% | 4% | 23µM* | -6% | ?

Bioassay records (PubChem)
